Ab-14 light chain CDR variants: yeast mating affinities

From the AlphaSeq antibody data of Engelhart et al. 2022 (doi:10.1038/s41597-022-01779-4), copy in the FLAb collection.

The target is the same throughout: PDVDLGDISGINAS, from the HR2 region of SARS-CoV-2 spike.

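Phage display of a naive human antibody library on the peptide gave the parent. The library (AAYL50) carries one to three amino acid substitutions per variant, with no insertions or deletions. AlphaSeq pools MATa yeast showing the antibodies with MATalpha yeast showing the peptide. Pairs that bind mate more often; barcode pairs of the diploids are counted by sequencing. The ratio of observed to expected reads was calibrated, replicate by replicate, on BCL2-family standards whose Kd was known from biolayer interferometry. Each pool was mated in three replicate cultures.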

The variants keep the heavy chain, the linker and the frameworks of Ab-14 (scFv order VH, a (GGGGS)3 linker, VL).
VH: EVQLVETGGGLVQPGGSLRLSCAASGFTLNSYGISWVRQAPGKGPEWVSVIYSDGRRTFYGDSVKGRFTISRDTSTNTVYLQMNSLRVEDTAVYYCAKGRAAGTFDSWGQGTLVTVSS
VL: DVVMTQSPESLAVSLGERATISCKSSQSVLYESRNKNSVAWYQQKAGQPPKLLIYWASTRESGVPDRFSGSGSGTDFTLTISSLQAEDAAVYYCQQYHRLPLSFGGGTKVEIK

The parent's light chain CDRs are KSSQSVLYESRNKNSVA, WASTRES, QQYHRLPLS; each variant's own CDRs replace them letter for letter.
The read-out is the apparent dissociation constant on a log10 scale (nM): the lower, the stronger.
The mean shown is taken over the replicates in which the pair was detected.
An entry "no signal" has no value in the source: the pair was not observed among the diploids in any replicate. This suggests poor binding but is not conclusive.
Three control strains display no target. For library AAYL50, 18% of the pairings with them gave a signal, with a median of 4.19 and one signal in twenty below 2.99, so weak values seen in few replicates may be background.
For reference, the parent read 0.65 as the reference entry and 1.68 as a member of this library.

| mean log10 Kd (nM) | replicates with signal | CDR-L1 | CDR-L2 | CDR-L3 |
|---|---|---|---|---|
| 2.25 | 3/3 | KSAQSVLYESRNKNSVA | WSNTRES | QQYHRLPLS |
| 1.92 | 3/3 | KSSQLVLYESRNLNSVA | WASTRES | EQYHRLPLS |
| 3.69 | 3/3 | KSSSSVLYESRNKNSVA | WASTHES | QQYQRLPLS |
| no signal | 0/3 | KSKQSVLYESRNTNSVA | WASTAES | QQYHRLPLS |
| 0.92 | 3/3 | KSSQSVLYESRGKNSVA | WASTRES | QQYERLPLS |
| 4.18 | 1/3 | KSSQSVLYESRWKNSEA | WASTRES | QLYHRLPLS |
| 5.51 | 2/3 | KSLQSVLYEFRNKTSVA | WASTRES | QQYHRLPLS |
| 1.63 | 3/3 | KSSQSVYYESSNKNSVA | WASTRES | QQTHRLPLS |
| 0.94 | 3/3 | KSFQIVLYESRNKNSVA | QASTRES | QQYHRLPLS |
| 5.00 | 1/3 | KSYQSVLYESRNKNSDA | WASTRES | QQYHRLPLN |
| no signal | 0/3 | KSSQSVLYESRNKNSVC | WASTRET | QQYHRVPLS |
| 4.43 | 1/3 | KSSQSWLYESRNKNSVA | WASTEHS | QQYHRLPLS |
| 4.38 | 1/3 | KSFQSWLYESRNKNSVA | WASTRES | QQYHRLPMS |
| no signal | 0/3 | KSSQFVLYESRNRNSEA | WASTRES | QQYHRLPLS |
| 0.63 | 3/3 | KVSQSVLYESRNKNSVA | WASTRES | QQYVRLPWS |
| 1.10 | 3/3 | KSSQSVLYESRNKNSVA | WAATREE | QQYHRLPLM |
| 5.45 | 3/3 | KSSQSVLYEHRNKNSVA | WASTREW | QQYHGLPLS |
| no signal | 0/3 | KSSQSVLYESLNKNDVA | WACTRES | QQYHRLPLS |
| 4.84 | 2/3 | KSSQSVLYEKRNKNSVA | VASTRES | QQYHRLPLS |
| no signal | 0/3 | KSSQSVLYESRNKNSVA | WASTRES | NQYHRMPLK |
| 6.21 | 1/3 | KSSQSDLYESRNKNSVF | WASTRES | QQYHRLPLL |
| no signal | 0/3 | KSLQSVLYEERNKNSVA | WASTRES | QQYPRLPLS |
| 1.25 | 3/3 | KSSTSVLYESMNKNSVA | WASTRES | QQYHRLPLG |
| 4.15 | 1/3 | KSSQSVLYESRNKISVA | WSSTRES | QQYHRLPLS |
| no signal | 0/3 | KSSQSVLYESRNKNSPA | WASTNEL | QQYHRLPLS |
| 0.51 | 3/3 | KSSQSVLYEARNKNSVA | WASERES | QQYIRLPLS |
| no signal | 0/3 | KSSQSVLAESRNKNSVA | WASTRRS | QQYHVLPLS |
| 3.26 | 1/3 | KSSQSVLNESRNKNSKA | WASTYES | QQYHRLPLS |
| no signal | 0/3 | KSSQSVDYESRNKNSVA | WSSTRES | QQVHRLPLS |
| 4.89 | 2/3 | KSSQSVLYEWRNKNQVA | WASTRES | QQYHRLPLY |
| 0.56 | 3/3 | KSSQSNLYESRNKNSVA | FASTRES | QQYHQLPLS |
| no signal | 0/3 | KSSQSVLYESRNKNSVA | WQSTRES | QQYKRLGLS |
| 1.85 | 3/3 | KSIQSGLYESRMKNSVA | WASTRES | QQYHRLPLS |
| 2.74 | 3/3 | KSSQSVLYWSRRKNSVA | WASTRES | QQYHRLGLS |
| no signal | 0/3 | KSSQSVLYETRLKNSVA | WASTDES | QQYHRLPLS |
| no signal | 0/3 | KSKDSVLYESRNKNSVA | WNSTRES | QQYHRLPLS |
| no signal | 0/3 | KSSQSVLYERRNKPSVA | WASTRES | QQYHRLSLS |
| 4.44 | 1/3 | KSSQSVLYESRNYNSVA | WASTRES | QQVHNLPLS |
| 1.63 | 3/3 | KSSQSVLYESRNKNSVA | TASLREG | QQYHRLPLS |
| 4.49 | 3/3 | KSSQSVLYEPRNKNSVA | AASTREA | QQYHRLPLS |
| 2.80 | 3/3 | KSGQSVLYESRNKNSVA | WASTRES | QWYHRLPMS |
| 0.54 | 3/3 | KSSQSVEFESRNKNSVA | WASTRES | QQYHRLPLD |
| 4.27 | 3/3 | KSSQSVLYESRNKNSVA | WASGRQS | QQLHRLPLS |
| no signal | 0/3 | KSSQSVLYESRNKNSVA | WASTREK | QQIHRLPLS |
| 1.75 | 3/3 | KSVQSVLYESRNKNSVA | EASTRPS | QQYHRLPLS |
| 4.14 | 2/3 | KSSQSVLYESRNKNSVA | WAPARES | QQYHRIPLS |
| no signal | 0/3 | KSSQSVLYELRNKNSVA | YASTRES | QQYHRLPLT |

3 of these entries, quoted again:

CDR-L1	CDR-L2	CDR-L3	mean log10 Kd (nM)	replicates with signal
KSSQSVLYESRNYNSVA	WASTRES	QQVHNLPLS	4.44	1/3
KSSQSVLYESRWKNSEA	WASTRES	QLYHRLPLS	4.18	1/3
KSSQLVLYESRNLNSVA	WASTRES	EQYHRLPLS	1.92	3/3